Measured values as given in patent US20080171706A1, “Anti-Adhesive Compounds to Prevent and Treat Bacterial Infections” (priority 2004, published 2008).

By UniProt entry, the sequences of proteins in these tests, tags left out. Residues count along the entry.
UniProt P08191, 22-179: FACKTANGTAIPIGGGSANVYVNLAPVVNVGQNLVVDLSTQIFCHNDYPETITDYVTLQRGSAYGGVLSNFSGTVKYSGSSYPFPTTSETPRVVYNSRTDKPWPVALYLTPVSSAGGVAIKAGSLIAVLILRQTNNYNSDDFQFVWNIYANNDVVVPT

Biological target: T1, FimHtrJ96 (Escherichia coli, UniProt P08191)
T1 construct: coding for the lectin domain of FimH (residues 1-158) with a C-terminal 6-histidine tag; made in house; host or cells: E. coli HB101 (lacking the fim operon), periplasmic extract, plasmid pPKL241
Type: binding, uropathogenic E. coli strain J96
Conditions: for ΔG°: Table 1, calculated from KD; for Kd: displacement assay, FimHtrJ96
Description: To measure the dissociation constant for FimH:alkyl or aryl-mannoside binding, two different binding assays were developed. The first binding assay uses [^3H]-mannose. The amount of radioactively labeled mannose bound to FimHtrJ96 was measured at six different concentrations of [^3H]-mannose, and a hyperbolic curve fitted to the resulting data (FIG. 1A). FimHtrJ96 corresponds to the carbohydrate (mannose) binding domain of FimH from the uropathogenic E. coli strain J96. The dissociation equilibrium constant was determined from this graph at the concentration of mannose […], which corresponds to occupation of half of the binding sites.
Surface Plasmon Resonance measurements were performed on a Biacore3000™. In a first experiment, the kinetic constants and maximal binding were determined for the FimH-antibody interaction. Next, a fixed concentration of FimH (close to the KD of the FimH-antibody interaction) in combination with varying concentrations of carbohydrate, were used to determine the dissociation equilibrium constant of the FimH-saccharide interaction in a competition experiment. Every measurement was repeated at least twice, including testing the variation between different protein and saccharide batches.
To eliminate the possibility of different binding strength for full length FimH and FimHtrJ96, the binding of alpha-D-mannose to FimC:FimH complex was also measured. […] The inhibition of [^3H]-mannose binding was used in a displacement assay to determine the dissociation constant for a synthetic butyl mannoside by measuring the amount of [^3H]-mannose bound to the protein in the presence of increasing amounts of the inhibitor (FIG. 1B). […] To investigate the effect of sequential addition of methyl groups to the O1 oxygen of D-mannose, a series of alkyl mannosides were synthesized and the dissociation constants determined using the [^3H]-mannose displacement assay and by surface plasmon resonance (Table 1).
Surface Plasmon Resonance measurements were performed on a Biacore3000™. The Fab fragments of a monoclonal antibody against FimH were covalently immobilised via lysines at 1000 Resonance Units (1000 pg ligand/mm^2) in flowcell Fc2 on a CM5 biasensor chip (BIAapplications Handbook, Biacore AB, Uppsala, Sweden). Immobilisation buffer was 100 mM NaAc pH 5.0 with 100 mM NaCl. The reference flowcell Fc1 was left blank.
Binding of FimH to the immobilized antibody was measured with a Biacore 3000 instrument in running buffer (phosphate buffered saline with 0.005% surfactant P20 and 3 mM EDTA), on both flowcells Fc1 and Fc2 simultaneously, at a flow rate of 30 μl/min and at 25° C. Complete dissociation of FimH was done with running buffer before starting a new binding cycle. For all measurements, the association time was 3 minutes, the dissociation time was 30 min. All binding cycles were performed in duplicate, including a zero concentration cycle of FimH (injection of running buffer).
In a first experiment, the kinetic constants, ka and kd, and the maximal binding Rmax, were determined for the FimH-antibody interaction (FimH concentrations (nM): 2000, 1000, 500, 250, 125, 62.5, 31.25, 15.625, 7.818, 3.911, 1.957, 0). All analyses were performed with the BIAeval software. A Langmuir binding isotherm with a 1:1 stoichiometry was fitted to the data, from which the kinetic constants and maximal binding were obtained.
In the next experiment, samples containing a fixed concentration of FimH (close to the KD of the FimH-antibody interaction) in combination with varying concentrations of saccharide, were used to determine the dissociation constant of the FimH-saccharide interaction in a competition experiment. First, ten-fold dilutions of the saccharide solution were used to determine the concentration range for binding of the saccharide to FimH.

Row | Substance | ΔG° [kcal/mol] | Kd [nM] | ΔG° J96 (Table 3, calculated from KD) [kcal/mol]
1 | ethylphenyl alpha-D-man [Ethylphenyl man] | -9.6 | 86 | 
2 | ethyl aminophenyl alpha-D-man [Ethyl aminophenyl man] | -9.4 | 137 | 
3 | α1-3,α1-6 mannopentaose |  | 330 | -8.8
